Assay results as given in patent US10729680B2, “5-substituted 2-(morpholin-4-yl)-1,7-naphthyridines” (BAYER PHARMA AKTIENGESELLSCHAFT, priority 2016, dated 2020).

Chains of the proteins cited; added tags and fusions are not shown. A line that says so, or that is headed by a name, gives the form on record, which may keep a tag or linker. Residues count along the entry.
UniProt Q13535, 1-2644 with tags or gaps limits assumed: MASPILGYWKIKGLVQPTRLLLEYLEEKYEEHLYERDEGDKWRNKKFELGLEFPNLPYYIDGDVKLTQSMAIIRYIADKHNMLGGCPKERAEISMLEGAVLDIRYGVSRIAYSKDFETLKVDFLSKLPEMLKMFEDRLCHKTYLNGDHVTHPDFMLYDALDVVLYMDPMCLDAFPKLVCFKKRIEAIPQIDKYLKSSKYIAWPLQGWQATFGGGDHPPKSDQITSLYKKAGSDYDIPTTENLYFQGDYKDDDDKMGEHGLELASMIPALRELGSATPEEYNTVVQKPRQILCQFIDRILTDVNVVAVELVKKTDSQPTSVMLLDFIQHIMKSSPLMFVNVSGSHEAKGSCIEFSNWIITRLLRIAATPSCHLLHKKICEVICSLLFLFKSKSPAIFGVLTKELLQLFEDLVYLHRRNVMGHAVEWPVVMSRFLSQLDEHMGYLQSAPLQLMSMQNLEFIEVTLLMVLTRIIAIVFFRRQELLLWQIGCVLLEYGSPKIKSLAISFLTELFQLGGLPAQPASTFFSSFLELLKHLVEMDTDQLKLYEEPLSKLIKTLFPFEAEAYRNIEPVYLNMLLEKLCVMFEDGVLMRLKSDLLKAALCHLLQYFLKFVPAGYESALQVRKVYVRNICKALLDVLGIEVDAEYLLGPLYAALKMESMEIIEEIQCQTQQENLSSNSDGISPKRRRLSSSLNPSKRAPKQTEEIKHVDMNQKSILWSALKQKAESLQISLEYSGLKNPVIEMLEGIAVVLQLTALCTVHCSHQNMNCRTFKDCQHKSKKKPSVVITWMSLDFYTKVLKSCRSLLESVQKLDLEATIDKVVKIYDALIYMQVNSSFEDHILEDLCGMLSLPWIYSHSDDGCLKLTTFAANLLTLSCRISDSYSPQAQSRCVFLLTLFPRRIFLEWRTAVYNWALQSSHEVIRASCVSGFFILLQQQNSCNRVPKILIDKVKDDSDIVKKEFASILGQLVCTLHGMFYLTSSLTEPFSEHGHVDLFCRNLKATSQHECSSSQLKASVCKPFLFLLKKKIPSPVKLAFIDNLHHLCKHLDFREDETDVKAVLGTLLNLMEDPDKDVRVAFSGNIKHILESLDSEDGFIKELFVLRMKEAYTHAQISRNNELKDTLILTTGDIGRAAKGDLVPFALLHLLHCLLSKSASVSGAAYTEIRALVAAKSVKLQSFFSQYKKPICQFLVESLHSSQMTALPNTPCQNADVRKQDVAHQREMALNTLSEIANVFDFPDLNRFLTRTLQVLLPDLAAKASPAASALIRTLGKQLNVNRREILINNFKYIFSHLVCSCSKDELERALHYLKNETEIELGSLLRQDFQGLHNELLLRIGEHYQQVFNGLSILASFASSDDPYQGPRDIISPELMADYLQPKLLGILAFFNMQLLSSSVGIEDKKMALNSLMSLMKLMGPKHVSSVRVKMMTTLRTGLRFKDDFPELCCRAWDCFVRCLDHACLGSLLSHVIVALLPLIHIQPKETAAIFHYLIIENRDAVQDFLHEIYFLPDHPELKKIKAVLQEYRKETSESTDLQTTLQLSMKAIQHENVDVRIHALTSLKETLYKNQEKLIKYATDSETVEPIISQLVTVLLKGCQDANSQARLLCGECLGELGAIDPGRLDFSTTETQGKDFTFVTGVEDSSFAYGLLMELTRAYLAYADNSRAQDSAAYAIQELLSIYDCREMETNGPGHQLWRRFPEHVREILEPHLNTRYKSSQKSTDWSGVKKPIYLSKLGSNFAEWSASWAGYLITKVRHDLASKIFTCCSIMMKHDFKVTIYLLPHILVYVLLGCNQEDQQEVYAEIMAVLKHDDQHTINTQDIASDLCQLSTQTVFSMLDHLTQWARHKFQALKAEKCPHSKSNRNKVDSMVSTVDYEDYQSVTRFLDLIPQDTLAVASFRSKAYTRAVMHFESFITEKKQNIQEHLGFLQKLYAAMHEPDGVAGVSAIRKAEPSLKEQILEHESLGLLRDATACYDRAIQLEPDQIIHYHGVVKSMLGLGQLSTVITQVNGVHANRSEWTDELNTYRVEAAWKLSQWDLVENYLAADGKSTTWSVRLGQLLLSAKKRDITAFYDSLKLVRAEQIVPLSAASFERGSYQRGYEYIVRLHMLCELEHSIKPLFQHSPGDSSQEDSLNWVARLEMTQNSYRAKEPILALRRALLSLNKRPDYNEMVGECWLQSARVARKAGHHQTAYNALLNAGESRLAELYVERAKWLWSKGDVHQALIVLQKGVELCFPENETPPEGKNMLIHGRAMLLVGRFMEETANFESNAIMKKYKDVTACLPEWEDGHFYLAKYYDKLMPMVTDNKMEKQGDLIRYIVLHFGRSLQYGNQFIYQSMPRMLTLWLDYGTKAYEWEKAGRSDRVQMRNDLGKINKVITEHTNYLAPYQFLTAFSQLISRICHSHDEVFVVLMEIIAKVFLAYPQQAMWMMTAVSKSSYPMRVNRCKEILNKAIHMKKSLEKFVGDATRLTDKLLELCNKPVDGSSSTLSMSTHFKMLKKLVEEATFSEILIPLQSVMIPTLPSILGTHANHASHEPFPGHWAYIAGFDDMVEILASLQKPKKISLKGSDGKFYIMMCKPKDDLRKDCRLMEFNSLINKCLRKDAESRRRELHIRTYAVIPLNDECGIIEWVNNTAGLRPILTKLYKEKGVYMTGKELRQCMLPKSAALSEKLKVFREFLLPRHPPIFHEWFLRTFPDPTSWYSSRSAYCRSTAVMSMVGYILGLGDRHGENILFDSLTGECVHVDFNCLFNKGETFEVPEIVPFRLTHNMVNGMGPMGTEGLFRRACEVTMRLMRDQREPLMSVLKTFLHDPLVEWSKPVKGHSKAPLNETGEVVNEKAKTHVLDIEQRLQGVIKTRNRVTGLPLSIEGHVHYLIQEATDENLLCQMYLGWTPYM
UniProt Q8WXE1, 1-791 with tags or gaps partner limits assumed: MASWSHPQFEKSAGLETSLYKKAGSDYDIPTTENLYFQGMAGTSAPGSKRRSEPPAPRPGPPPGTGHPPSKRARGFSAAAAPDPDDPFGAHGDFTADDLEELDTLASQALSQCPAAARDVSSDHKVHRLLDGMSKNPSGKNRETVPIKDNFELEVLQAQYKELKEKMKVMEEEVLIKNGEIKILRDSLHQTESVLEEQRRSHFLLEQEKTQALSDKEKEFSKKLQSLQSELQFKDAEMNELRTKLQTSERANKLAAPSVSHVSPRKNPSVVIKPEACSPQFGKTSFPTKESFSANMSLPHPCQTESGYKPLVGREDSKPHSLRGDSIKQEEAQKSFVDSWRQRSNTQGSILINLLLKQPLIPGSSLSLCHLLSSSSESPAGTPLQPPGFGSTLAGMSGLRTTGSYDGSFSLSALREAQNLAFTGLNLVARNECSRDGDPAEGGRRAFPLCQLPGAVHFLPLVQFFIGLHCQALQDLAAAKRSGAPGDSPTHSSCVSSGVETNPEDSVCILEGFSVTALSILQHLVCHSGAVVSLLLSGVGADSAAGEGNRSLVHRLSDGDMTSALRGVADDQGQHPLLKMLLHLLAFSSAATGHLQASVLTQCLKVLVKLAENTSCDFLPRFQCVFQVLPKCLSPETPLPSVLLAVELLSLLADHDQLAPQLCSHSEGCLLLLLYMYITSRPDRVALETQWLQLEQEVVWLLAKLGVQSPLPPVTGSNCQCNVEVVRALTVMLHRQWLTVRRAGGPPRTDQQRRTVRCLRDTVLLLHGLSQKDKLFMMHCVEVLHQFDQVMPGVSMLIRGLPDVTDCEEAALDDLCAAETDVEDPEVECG

Target: full-length human ATR protein (ATR/ATRIP) (Homo sapiens (Human), UniProt Q13535)
Test: Binding Assay ATR (TR-FRET, tracer A displacement)
Conditions: read-out: ATR binding (tracer A) IC50, displacement of fluorescent tracer A from GST-ATR/ATRIP
Text: To determine of binding activity of the test compounds, full-length human ATR protein was expressed and purified together with ATRIP as described above. Furthermore, a fluorescently labelled compound (tracer A as described above) was used as a tracer molecule. Detection of the binding event of the tracer was achieved by time-resolved fluorescence energy transfer (TR-FRET). We used an anti-GST-Terbium antibody (CisBio) that binds to the GST-tag at the N-terminus of ATR-kinase. Excitation of Terbium with 337 nm light results in emission of fluorescent light with 545 nm. In case a tetrameric complex has formed (antiGST-Tb+GST-ATR+Strp2-ATRIP+tracer), part of the energy will be transferred from the Terbium to the fluorophore that itself emits light of 570 nm. […]
For the assay 50 nl of a 100-fold concentrated solution of the test compound in DMSO was pipetted into a black low volume 384 well microtiter plate (MTP, Greiner Bio-One, Frickenhausen, Germany). […] The measurement of the TR-FRET signal was performed in a standard HTRF-compatible MTP reader instrument (e.g. BMG Pherastar) by recording the fluorescence emissions at 545 nm and 570 nm after excitation at 337-350 nm. The ratio between emission at 570 nm divided by emission at 545 nm was calculated to give the well ratio. […] IC50 values were calculated by a 4 parameter fit using standard software (GraphPad prism or equivalent).

`Cc1cnc(-c2ccn[nH]2)c2nc(N3CCOC[C@H]3C)cc(-c3cnc4ccccc4c3)c12` gave an IC50 of 33.8 nM.
